{"source": "paper PMC10326257", "about": "(Acta Pharmaceutica Sinica. B, 2023)", "test_system": "c-MET^Y1230H and c-MET^D1228N", "experiment": "Western blot of c-MET and p-c-MET in Y1230H- or D1228N-EBC1 and Hs746T cells", "format": "cell-based", "settings": "1000 nmol/L, 48 h"}
{"smiles": "CN1CCC(COc2cnc(-c3cccc(Cn4nc(-c5cccc(C#N)c5)ccc4=O)c3)nc2)CC1", "note": "[Tepotinib]", "values": [{"measurement": "c-MET and p-c-MET level (Western blot)", "result": "partially inhibited p-c-MET level"}]}
